Assay results as given in ChEMBL document CHEMBL4732251, “Synthesis and evaluation of the epithelial-to- mesenchymal inhibitory activity of indazole-derived imidazoles as dual ALK5/p38α MAP inhibitors” (Eur J Med Chem, 2021).

Tests used:
[1] = target: T1, TGF-beta receptor type-1 (Homo sapiens) (UniProt P36897); experiment: Potency index, ratio of EW-7197 IC50 to test compound IC50 for recombinant human GST-fused ALK5 expressed in baculovirus infected Sf9 cells assessed as incoporation of [33]Pi after 60 mins in presence of [gamma-33P]-ATP by microplate scintillation counter method
T1 sequence (whole entry): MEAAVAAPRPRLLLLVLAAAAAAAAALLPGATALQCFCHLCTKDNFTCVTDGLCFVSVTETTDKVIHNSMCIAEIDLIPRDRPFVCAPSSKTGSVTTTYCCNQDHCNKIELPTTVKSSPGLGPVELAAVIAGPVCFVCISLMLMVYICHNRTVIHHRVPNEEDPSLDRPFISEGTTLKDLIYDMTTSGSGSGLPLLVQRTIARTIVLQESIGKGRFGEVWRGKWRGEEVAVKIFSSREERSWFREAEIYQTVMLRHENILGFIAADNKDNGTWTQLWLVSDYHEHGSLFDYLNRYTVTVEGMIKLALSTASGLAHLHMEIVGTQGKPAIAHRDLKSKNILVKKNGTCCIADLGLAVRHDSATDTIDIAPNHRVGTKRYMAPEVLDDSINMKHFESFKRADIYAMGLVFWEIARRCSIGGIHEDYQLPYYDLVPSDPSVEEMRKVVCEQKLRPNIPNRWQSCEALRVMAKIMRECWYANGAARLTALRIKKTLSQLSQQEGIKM

[2] = target: T1, TGF-beta receptor type-1 (Homo sapiens); experiment: Potency index, ratio of LY-2157299 IC50 to test compound IC50 for recombinant human GST-fused ALK5 expressed in baculovirus infected Sf9 cells assessed as incoporation of [33]Pi after 60 mins in presence of [gamma-33P]-ATP by microplate scintillation counter method

In the case of `Cc1cccc(-c2[nH]c(CNc3cccc(F)c3)nc2-c2ccc3[nH]ncc3c2)n1`, the Ratio IC50 [1] is reported as 3.5 and the Ratio IC50 [2] is reported as 32.3.
